Relative growth data for 80 compounds are collected here from published antibiotic growth screens (doi:10.1038/s41589-023-01349-8).

The list shows a part of the results.

The subject of the experiment is A. baumannii ATCC 17978. Briefly: relative growth (fraction of control); higher = less inhibition. The conditions noted are these: 50 µM.
On to `Cc1ccc(-c2noc([C@H](C)c3ccc(CC(C)C)cc3)n2)cc1`, for which the relative growth was determined as 0.964. The same measure for `N#C/C(=C\c1cccs1)c1csc2ccc(Cl)cc12`: 1.02; for `Nc1nc(-c2ccccc2)cc[n+]1[O-]`: 1.12; for `CNC(=O)c1cc(S(=O)(=O)N(C)C[C@@H]2Oc3ccc(NC(=O)Nc4ccc(C#N)cc4)cc3CC(=O)N([C@@H](C)CO)C[C@@H]2C)cs1`: 1.01. The result for `CC[C@H](C)C(=O)O[C@H]1CCC=C2C=C[C@H](C)C(CCC3C[C@@H](O)CC(=O)O3)[C@H]21` (stereo not given in full) reads 1.02; that for `CC(=O)NCCCC[C@@H]1NC(=O)[C@H]2C[C@@H](C(=O)NCCCCCN)[C@@H](c3cccc(OCCO)c3)N2C1=O`, 1.13.

On to `COc1ccc(/C=C/C(=O)O[C@@H]2[C@@H](O)[C@H](C)O[C@@H](O[C@H]3[C@@H]4C=CO[C@@H](O[C@H]5O[C@@H](CO)[C@H](O)[C@@H](O)[C@@H]5O)[C@@H]4[C@@]4(CO)O[C@@H]34)[C@@H]2OC(C)=O)cc1`, for which the relative growth was determined as 1.18.

As for `Cc1cc(NS(=O)(=O)c2ccc(N)cc2)nc(C)n1`, the relative growth turned out to be 1.47.

For `COCC(=O)N(C)C[C@H]1Oc2cc(C#CC(C)(C)O)ccc2S(=O)(=O)N([C@H](C)CO)C[C@@H]1C`, the relative growth was 1.08. The result for `COC(=O)c1c2oc(c1C(=O)OC)C(=O)N[C@@H](Cc1ccccc1)Cn1cc(nn1)CNC(=O)[C@H](Cc1ccccc1)NC(=O)N[C@@H](CO)CC2` reads 1.07; that for `CCCCCCCCCCCCCCCCOP(=O)([O-])OCC[N+](C)(C)C`, 0.891; that for `Cc1ccc2sc(C(=O)O)cc2c1`, 1.05. Take `COc1cccc(S(=O)(=O)N2C[C@@H](O)COC[C@@H]3O[C@@H](CC(=O)N4CCN(C)CC4)CC[C@H]32)c1`: the relative growth turned out to be 0.998. The same measure for `COc1cc(C(C)=O)ccc1O`: 0.911; for `O=C(N[C@H]1CC[C@@H](CC(=O)N2CCOCC2)O[C@@H]1CO)c1ccc2c(c1)OCO2`: 0.864; for `COCCOC(=O)N1C(=O)[C@@]2(c3cc(C#CCC(C(=O)OC)C(=O)OC)ccc31)[C@H](C(=O)Nc1nc3ccccc3s1)[C@H]1C(=O)O[C@H](c3ccccc3)[C@H](c3ccccc3)N1[C@@H]2c1ccccc1OCCO`: 1.07.

`N=C(CN1CCCCC1)NO` yielded a relative growth of 1.11. The same measure for `O=C(N1CCOCC1)[C@]1(CCS(=O)(=O)c2ccccc2)N=C(c2ccc(OCCCO)cc2)O[C@@H]1c1ccccc1`: 0.684; for `Cc1ccc(NC(=N)N=C(N)N)c(C)c1`: 0.834. The result for `N#CCNC(=O)CN1C(=O)c2ccccc2C1=O` reads 0.942; that for `C[C@]1(C(=O)NCc2ccccc2)c2ccccc2C(=O)N(Cc2ccccc2)[C@H]1c1ccc(COC(=O)NCCCCCC(=O)NO)cc1`, 0.807.

For the compound `C[C@@H]1CN([C@@H](C)CO)S(=O)(=O)c2ccc(C#Cc3ccccc3)cc2O[C@H]1CN(C)S(=O)(=O)c1ccccc1F`, the relative growth came out at 1.06.

Turning to `C[N+]1(C)CCC(OC(=O)C(O)(c2ccccc2)C2CCCC2)C1.[Br-]` (stereo not given), the relative growth turned out to be 0.835. The result for `O=C(O)C[C@@H](C(=O)O)[C@H](O)c1ccccc1` reads 1.07; that for `O=C(C[C@H]1C[C@@H]2c3cc(NC(=O)NC4CCCC4)ccc3O[C@@H]2[C@H](CO)O1)NCc1ccc2c(c1)OCO2`, 0.948; that for `O=C(C[C@H]1C=C[C@@H](NC(=O)Nc2cc(F)ccc2F)[C@@H](CO)O1)NCCCN1CCOCC1`, 0.997. `C[C@H]1CN([C@@H](C)CO)S(=O)(=O)c2ccc(C#CCN(C)C)cc2O[C@@H]1CN(C)S(=O)(=O)c1cccc(F)c1` gave a relative growth of 1.05. Turning to `O=c1c(O)cc([C@H]2Oc3cc(O)cc(O)c3C[C@H]2O)cc2c([C@H]3Oc4cc(O)cc(O)c4C[C@H]3O)cc(O)c(O)c12`, the relative growth stood at 0.87.

Take `COc1ccc(NC(=O)N[C@@H]2CC[C@@H](CCNC(=O)CN3CCOCC3)O[C@@H]2CO)cc1`: the relative growth was 1.01. The same measure for `CO[C@H]1CN(C)C(=O)c2cc(NS(=O)(=O)c3ccccc3C)ccc2OC[C@@H](C)N(S(C)(=O)=O)C[C@@H]1C`: 1.15; for `NCC[C@@H]1CC[C@@H](NC(=O)Nc2ccc(F)cc2)[C@@H](CO)O1`: 0.982; for `CCN(CC)CCNc1ccc(CO)c2sc3ccccc3c(=O)c12`: 0.946. The result for `CC(C)(C)OC(=O)CC[C@]12N=C(c3ccc(OCCCO)cc3)O[C@H]1c1ccccc1CN(C(=O)c1ccccc1)C2=O` reads 1.08; that for `CC(C)(C)CC(C)(C)c1ccc(O)c(Cc2ccc(Cl)cc2Cl)c1`, 1.62; that for `O=C(O)CCc1n[nH]c(=S)[nH]c1=O`, 0.994. The result for `CN1CCN(c2c(F)cc3c(=O)c(C(=O)O)cn4c3c2OCN4C)CC1` reads 0.145; that for `CCN1CCN(C(=O)NC(C(=O)N[C@@H]2C(=O)N3[C@@H]2SC(C)(C)[C@@H]3C(=O)[O-])c2ccccc2)C(=O)C1=O.[Na+]` (stereo not given in full), 0.149; that for `CC/N=c1\sc(C(=O)OC)cc(=O)n1CC`, 0.968. In the case of `COc1ccc(S(=O)(=O)Nc2ccc3c(c2)[C@H]2C[C@H](CC(=O)NCC4CC4)O[C@H](CO)[C@H]2O3)cc1`, the relative growth was determined as 1.04. As for `CCCNC(=O)N1C[C@H](O)COC[C@H]2O[C@H](CC(=O)N3CCN(C)CC3)CC[C@@H]21`, the relative growth stood at 1.03. The same measure for `CCNC(=O)C[C@H]1C=C[C@@H](NC(=O)C2CC2)[C@@H](CO)O1`: 1.08.

With `CCOC(=O)c1ccc(N)cc1`, the relative growth came out at 0.865. The result for `O=C(C[C@@H]1CC[C@@H]2[C@H](COC[C@@H](O)CN2C(=O)Nc2ccc(Cl)c(Cl)c2)O1)NCc1ccncc1` reads 0.92. The result for `O=C1N[C@@H](Cc2c[nH]c3ccccc23)COC(=O)[C@H](Cc2ccc(F)cc2)CCC=CC[C@H]1CC(=O)N(CCO)Cc1ccccc1` reads 1.25; that for `COc1ccc(S(=O)(=O)N(C)C[C@@H]2Oc3c(NC(=O)Nc4cccc5ccccc45)cccc3C(=O)N([C@@H](C)CO)C[C@H]2C)cc1Cl`, 0.932. In turn, `O=C(C[C@@H]1C=C[C@H](NC(=O)c2ccc(F)cc2)[C@@H](CO)O1)NCc1ccncn1` came in with a relative growth of 1.04.

As to `COc1c(C)cnc2c1c(=O)n(CC(N)=O)c(=O)n2C`, the relative growth was determined as 0.835. The result for `CC(C)CC#Cc1ccc2c(c1)O[C@H](CN(C)C(=O)c1cnccn1)[C@H](C)CN([C@@H](C)CO)S2(=O)=O` reads 0.905; that for `COc1ccccc1OCC(O)CN1CCN(CC(=O)Nc2c(C)cccc2C)CC1.Cl.Cl` (stereo not given), 1.14; that for `Cc1cc(C)n(-c2n[nH]c(=S)n2N)n1`, 0.94. The result for `C[C@@H]1CN([C@H](C)CO)S(=O)(=O)c2ccc(C#CCN(C)C)cc2O[C@H]1CN(C)C` reads 0.837; that for `O=C(C[C@H]1CC[C@@H]2[C@H](COC[C@@H](O)CN2S(=O)(=O)c2ccc(Cl)cc2)O1)N[C@@H]1CCN(Cc2ccccc2)C1`, 1.03. The same measure for `N=C(N)Nc1nc2ccccc2[nH]1`: 0.969; for `COc1cccc(CNc2nn[nH]n2)c1OC`: 0.947. Regarding `O=c1/c(=C\c2ccc(F)cc2)sc2n1CCN=2`, the relative growth was determined as 0.933. Consider `COC(=O)CCC(C)C1CCC2C3CC[C@@H]4C[C@H](O)CC[C@]4(C)C3C[C@H](O)[C@]12C` (stereo not given in full), for which the relative growth worked out at 0.919.

On to `CC(C)CC#Cc1cnc2c(c1)C(=O)N([C@@H](C)CO)C[C@@H](C)[C@H](CN(C)C(=O)CN1CCOCC1)O2`, for which the relative growth amounted to 1.05. Regarding `O=C(C[C@@H]1CC[C@@H]2[C@H](COC[C@@H](O)CN2C(=O)Nc2ccc3c(c2)OCO3)O1)N1CCN(c2ccccc2)CC1`, the relative growth is 1.1.

In the case of `Cc1ccc(S(=O)(=O)NC(=O)NN2CCCCCC2)cc1`, the relative growth is 0.977. Turning to `CCOC(=O)/C(C#N)=C1/C=CN(C)C=N1`, the relative growth was 1.14.

`O=C(C[C@H]1CC[C@H]2[C@@H](COC[C@@H](O)CN2C(=O)Nc2ccc(Cl)cc2)O1)NC1Cc2ccccc2C1` gave a relative growth of 0.998. `O=c1[nH]c(=O)n([C@H]2C[C@H](O)[C@@H](CO)O2)cc1Br` had a relative growth of 1.11.

Regarding `CN(C)Cc1cn(CC[C@H]2CC[C@@H](NS(=O)(=O)c3ccccc3)[C@H](CO)O2)nn1`, the relative growth came out at 0.968.

Take `O=c1[nH]c2ccccc2c(O)c1[I+]c1ccccc1`: the relative growth amounted to 0.95.

`C[C@@H]1CN([C@@H](C)CO)S(=O)(=O)c2ccc(/C=C/c3ccccc3)cc2O[C@@H]1CN(C)C(=O)CN1CCOCC1` had a relative growth of 1.1.

The compound `C[C@H](CO)N1C[C@H](C)[C@@H](CN(C)C(=O)c2cnccn2)Oc2ncc(C#CCN(C)C)cc2C1=O` returned a relative growth of 1.13.

In turn, `CC(=O)CC/C=C(\C)CC/C=C(\C)CC/C=C(\C)CCC=C(C)C` gave a relative growth of 1.29. The same measure for `Clc1ccc(CSC(Cn2ccnc2)c2ccc(Cl)cc2Cl)cc1.O=[N+]([O-])O` (stereo not given): 1.26. The result for `CCNC(=O)C[C@@H]1C=C[C@H](NC(=O)C2CC2)[C@H](CO)O1` reads 0.895; that for `COc1ccc(NC(=O)N2C[C@@H](O)COC[C@@H]3O[C@H](CC(=O)NCc4ccccc4OC)CC[C@H]32)cc1`, 1.04; that for `COc1ccccc1C#Cc1ccc2c(c1)O[C@@H](CN(C)Cc1ccncc1)[C@@H](C)CN([C@H](C)CO)S2(=O)=O`, 1.07. The result for `COc1cccc(OC)c1O` reads 1.01; that for `CO[C@H](CN(C)S(=O)(=O)c1cccc(Cl)c1)[C@H](C)CN([C@H](C)CO)S(=O)(=O)c1ccc(Cl)cc1`, 0.901; that for `O=C(C[C@H]1C[C@@H]2c3cc(NC(=O)C4CCOCC4)ccc3O[C@@H]2[C@@H](CO)O1)NCc1ccc2c(c1)OCO2`, 1.15. For `CNC(=O)[C@H]1O[C@H](n2cnc3c(NCc4cccc(I)c4)nc(Cl)nc32)[C@@H](O)[C@@H]1O`, the relative growth is 1. The same measure for `C[C@@H](NC(=O)C[C@H]1C=C[C@@H](NC(=O)CN2CCOCC2)[C@@H](CO)O1)c1ccccc1`: 0.981. The result for `O=C(O)/C=C/C(=O)NC1CC1` reads 1.02; that for `NC(=O)N[C@@H]1CC(=O)N(c2ccccc2)C1`, 0.933. On to `O=C(C[C@H]1CC[C@@H]2[C@H](COC[C@H](O)CN2C(=O)c2ccccc2)O1)N1CCOCC1`, for which the relative growth worked out at 1.02. For `O=C(Nc1cc(C(=O)Nc2ccc(S(=O)(=O)O)cc2S(=O)(=O)O)cc(C(=O)Nc2ccc(S(=O)(=O)O)cc2S(=O)(=O)O)c1)Nc1cc(C(=O)Nc2ccc(S(=O)(=O)O)cc2S(=O)(=O)O)cc(C(=O)Nc2ccc(S(=O)(=O)O)cc2S(=O)(=O)O)c1`, the relative growth turned out to be 0.965.
